Here are results for four compounds from US11696928B2, “Compounds and use thereof in the expansion of stem cells and/or progenitor cells” (UNIVERSITE DE MONTREAL, priority 2017, dated 2023).

Amino acid sequences for entries named in this document (tags omitted). Residues count along the entry.
UniProt P35869, 11-848 limits assumed: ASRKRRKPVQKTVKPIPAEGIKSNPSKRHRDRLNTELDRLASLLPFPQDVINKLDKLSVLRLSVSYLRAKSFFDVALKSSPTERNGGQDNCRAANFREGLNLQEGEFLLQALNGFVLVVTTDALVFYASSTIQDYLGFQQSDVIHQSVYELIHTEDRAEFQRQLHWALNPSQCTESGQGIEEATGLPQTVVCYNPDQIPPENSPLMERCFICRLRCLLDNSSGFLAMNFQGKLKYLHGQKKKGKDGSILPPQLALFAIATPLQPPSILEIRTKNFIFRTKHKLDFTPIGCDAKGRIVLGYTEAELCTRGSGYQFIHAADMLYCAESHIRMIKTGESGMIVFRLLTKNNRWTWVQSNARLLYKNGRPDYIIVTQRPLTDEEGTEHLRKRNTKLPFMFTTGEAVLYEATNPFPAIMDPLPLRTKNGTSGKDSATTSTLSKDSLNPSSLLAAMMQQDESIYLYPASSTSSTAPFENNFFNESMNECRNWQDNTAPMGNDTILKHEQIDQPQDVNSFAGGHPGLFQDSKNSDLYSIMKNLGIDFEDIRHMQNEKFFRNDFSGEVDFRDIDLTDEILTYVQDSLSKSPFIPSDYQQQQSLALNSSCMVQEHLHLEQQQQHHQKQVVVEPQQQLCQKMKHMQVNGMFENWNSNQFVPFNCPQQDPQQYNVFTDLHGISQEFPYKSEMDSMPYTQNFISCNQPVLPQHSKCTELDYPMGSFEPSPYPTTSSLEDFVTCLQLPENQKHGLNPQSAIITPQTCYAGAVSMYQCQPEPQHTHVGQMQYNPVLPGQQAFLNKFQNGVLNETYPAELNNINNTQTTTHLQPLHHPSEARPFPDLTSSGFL

The structures appear in SMILES notation. Some results are limits rather than exact numbers.

The subject of data set [1] is Human CD34+ cord blood (CB) cells. The experiment in a line: CD34+ activity assessment (7-day expansion of pre-expanded CD34+ cells, flow cytometry). As to conditions: concentration at which compound/vehicle ratio of CD34+ cell number is >= 1.5; 7 days, with 35 nM UM0128171; Table 1. The method, then:
Human CD34+ cord blood (CB) cells were isolated from fresh units using RosetteSep™ 0034 pre-enrichment cocktail followed by CD34 positive selection using EasySep Kit™ (StemCell Technologies). The cells were then pre-expanded in bulk, by culturing at 37° C. for 6 days in HSC expansion media consisting of StemSpan ACF (StemCell Technologies) supplemented with 100 ng/mL Stem Cell Factor (SCF, Shenandoah), 100 ng/mL FMS-like Tyrosine Kinase 3 Ligand (FLT3L, Shenandoah), 50 ng/mL Thrombopoietin (TPO, Shenandoah), 2 mM GlutaMAX™ (Invitrogen), 10 μg/mL low density lipoproteins (LDL, StemCell Technologies), 10 μg/mL Ciprofloxacin and 35 nM UM0128171. […] Following the pre-expansion, cells were harvested, aliquoted and frozen until use.
For each activity assessment, CD34+ pre-expanded cells (approximately 2000 per well in a 384-well plate) were cultured in HSC expansion media, in the presence of 35 nM UM0128171. Compounds were serially diluted (1/2) in DMSO (10 dilutions per compound) and added to the cells in order to achieve a 1/1000 final dilution. StemRegenin1 (SR1) and/or Compound 1001 were included in all experiments as controls to monitor assay performance. The plate was incubated at 37° C. for 7 days in static conditions (i.e. no shaking and no addition of media). Flow cytometry analysis was performed at the end of the 7-day expansion. Cells were stained with PE-labeled anti-human CD45RA (BD Biosciences) and APC-labeled anti-human CD34 (BD Biosciences) and analyzed using Intellicyt IQue cytometer equipped with ForeCyt software. Gates were drawn around the populations of interest to obtain cell numbers and relative proportions. The EC1.5 value, which is the concentration at which the compound/vehicle ratio is greater or equal to 1.5, was calculated by plotting the CD34+ cell number against concentrations (log-scale) in a 4-PL curve and fitting the curve using IDBS XLfit (set model 251) in Microsoft Excel.
Background: In flow cytometry, cells or beads pass a laser one at a time.

The next data set concerns the target AhR (Homo sapiens, UniProt P35869). The experiment in a line: Inhibition of AhR-mediated gene transcription (HEK-XRE 11.1 luciferase reporter, MeBIO induction). In kind it is cell-based. The settings on record: read-out: AHR; HEK-XRE 11.1 cells, MeBIO 0.1 nM, luminescence after 24 hours; Table 1. The method, then: HEK cells line was transfected with an AhR-responsive firefly luciferase reporter gene X4-4.27 and the stable transfectants generated were again transfected with phRL-CMV (a Renilla luciferase expression vector; Promega) along with pBAsi-hU6 Pur DNA (a plasmid carrying the puromycin-resistant gene; TaKaRa, Shiga, Japan), and maintained in the presence of both hygromycin B and puromycin (2 mg/mL). One of the resultant clones was named HEK-XRE 11.1, and used in the reporter gene assays.
HEK-XRE 11.1 cells were plated in 384-well plates at a density of 25,000 cells in 50 uL volume per well. The induction of ARh pathway was done by addition of MeBIO at 0.1 nM concentration. ARh antagonist compounds were then added to seeded cells in serial dilutions (8 dilutions, 1:[…] down to 5 nM) in duplicate wells. Renilla expression was not used as internal control. On each plate, Compound 1001 and SR1 were added as dose control (8 dilutions, 1:3, 5 mM down to 2.5 nM for SR1 and 2 mM down to 1 nM for compound 1001). Luminescence activity was evaluated after 24 hours culture using Lumi-384-CellTiterGlo-Corning protocol. Dose-response curves were generated using nonlinear regression in Excel.
(In general: A reporter such as luciferase makes a cellular process visible.)

In the case of `Nc1c(C(=O)Nc2ccc(Cl)cc2)sc2ccc(C(F)(F)F)nc12`, in data set [1], the EC1.5 is 1 to 5 µM. On AhR, the IC50 fell in the range of 50 to 500 nM.
For the compound `Nc1c(C(=O)Nc2ccc(Br)cc2)sc2ccc(C(F)(F)F)nc12`, the EC1.5 in data set [1] was over 5 µM. Also, the IC50 at AhR was in the range of 50 to 500 nM.
For `Cc1ccc(NC(=O)c2sc3ccc(C(F)(F)F)nc3c2N)cc1`, the EC1.5 in data set [1] was over 5 µM. Further, the IC50 on AhR was 50 to 500 nM.
For `Nc1c(C(=O)Nc2cccnn2)sc2ncc(C(F)(F)F)cc12`, the EC1.5 in data set [1] is over 5 µM. On AhR, the IC50 was under 50 nM.
